Drawing on patent US20060084688A1, “Aromatic sulfone hydroxamic acid metalloprotease inhibitor” (priority 1997, published 2006), this text covers IC50 for two compounds.

By UniProt entry, the sequences of proteins in these tests, tags left out. Residues count along the entry.
UniProt P08253, 110-660 limits assumed: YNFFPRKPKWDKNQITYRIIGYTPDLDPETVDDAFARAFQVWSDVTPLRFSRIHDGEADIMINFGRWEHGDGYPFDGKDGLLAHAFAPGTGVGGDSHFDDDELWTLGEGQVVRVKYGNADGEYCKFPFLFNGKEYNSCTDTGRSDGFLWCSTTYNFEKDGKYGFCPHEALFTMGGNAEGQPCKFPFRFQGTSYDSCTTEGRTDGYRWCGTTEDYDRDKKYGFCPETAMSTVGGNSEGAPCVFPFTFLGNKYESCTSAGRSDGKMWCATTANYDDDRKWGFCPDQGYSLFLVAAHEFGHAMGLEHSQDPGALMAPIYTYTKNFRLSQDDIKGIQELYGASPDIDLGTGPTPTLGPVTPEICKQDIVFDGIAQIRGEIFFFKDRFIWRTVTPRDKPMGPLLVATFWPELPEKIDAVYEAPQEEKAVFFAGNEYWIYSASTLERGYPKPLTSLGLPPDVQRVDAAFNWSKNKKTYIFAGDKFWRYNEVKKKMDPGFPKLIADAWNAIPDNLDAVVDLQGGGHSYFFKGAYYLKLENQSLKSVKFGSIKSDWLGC

One assay concerns the target recombinant human MMP-2 (Homo sapiens, UniProt P08253). Conditions: read-out: MMP-2 IC50; Inhibition Table B.
For a further assay, the target named is recombinant human MMP-13 (Homo sapiens, UniProt P45452). Kind of assay: In vitro metalloprotease inhibition, fluorogenic MCA peptide substrate, MMP-13. Type of assay: biochemical. Conditions: read-out: MMP-13 IC50; Inhibition Table B.

A word on the IC50: it is the concentration that inhibits the measured activity by half.

As for `O=C(NO)C1(S(=O)(=O)c2ccc(Oc3ccc(Cl)cc3)cc2)CCOCC1` [Example 100, 4-[[4-(4-chlorophenoxy)-phenyl]sulfonyl]-tetrahydro-N-hydroxy-2H-pyran-4-carboxamide], the IC50 at recombinant human MMP-2 is below 0.1 nM.

As for `O=C(NO)C1(S(=O)(=O)c2ccc(Oc3ccc(OC(F)(F)F)cc3)cc2)CCOCC1` [Example 69], the IC50 at recombinant human MMP-13 and on recombinant human MMP-2 was below 0.1 nM throughout.
